# Measured values published in PubChem BioAssay AID504634 (The Scripps Research Institute Molecular Screening Center, 2011).
# Protein sequences, listed by entry. Tags and fused reporters are not part of them.
# UniProt P47898, whole entry, looked up: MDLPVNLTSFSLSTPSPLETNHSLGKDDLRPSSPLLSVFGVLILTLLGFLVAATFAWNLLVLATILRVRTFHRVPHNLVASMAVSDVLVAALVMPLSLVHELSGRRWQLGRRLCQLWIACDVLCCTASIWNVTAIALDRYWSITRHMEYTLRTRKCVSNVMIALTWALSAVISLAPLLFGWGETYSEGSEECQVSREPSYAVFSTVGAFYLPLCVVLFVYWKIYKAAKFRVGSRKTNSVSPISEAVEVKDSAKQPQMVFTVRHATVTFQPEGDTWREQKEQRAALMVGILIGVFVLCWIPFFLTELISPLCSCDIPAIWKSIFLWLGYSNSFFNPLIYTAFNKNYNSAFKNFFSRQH
# Only a part is listed here, and it is no random draw. Calls of active or inactive are those of the source. Cut-off read from the data, not from the text of the source: active = inhibition mostly above about 23% (no sharp cut-off); inactive = mostly below about 18%.
# Molecular target: 5-hydroxytryptamine receptor 5A (Homo sapiens) (UniProt P47898)
# Experiment: HTR5A inverse agonists in luminescence cell assay, primary screen, counter-screen for OPRM1-OPRD1 heterodimer inverse agonist project, full-deck HTS (AID 504634);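 note: 0% = cells with DMSO and 100% = no-cell wells with DMSO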
# Details: HTR5A cell line, inverse agonism, at 9.3 µM, stronger effect = higher value
row,Compound,inhibition
1,CCCCOC(=O)Cn1c(=N)n(CCN2CCOCC2)c2ccccc21,inactive: 3.13%
2,COc1ccc(CNC(=O)CCCCCNC(=O)N2CCn3c2nc2ccccc23)cc1,inactive: 5.12%
3,CCOc1cc(N2CCOCC2)c(OCC)cc1NC(=O)Cn1cnc2c(=O)n(C)c(=O)n(C)c21,inactive: 10.2%
4,O=C1Cn2c(nc3ccccc32)N1c1cccc(C(F)(F)F)c1,inactive: -8.51%
5,COc1ccc(C(=O)CSc2nc3ccccc3n2CC(=O)NC(C)(C)C)cc1,inactive: 1.97%
6,CCC(C)(C)n1nnnc1CN1CCC(n2c(C)nc3cc(C(F)(F)F)ccc32)CC1,inactive: -14.7%
7,Cc1nc2cc(F)ccc2n1C1CCN(Cc2nnnn2CCc2ccccc2)CC1,inactive: 14.8%
8,CN1CC[C@]2(CCN3CCc4c(oc5ccccc45)[C@@H]3C2)N(C)C1=O,inactive: -30.8%
9,COc1ccccc1OP(=O)(Nc1ccc(C)cn1)Oc1ccccc1OC,inactive: -11.3%
10,CN1CCN(CCN2CCn3c2nc2ccccc23)CC1,inactive: 2.82%
11,CC(O)c1nc2ccccc2n1CC(=O)N1CCN(c2ccccc2)CC1 (centres undefined),inactive: -0.58%
12,CCOCN(C(=O)Cn1c(C(C)O)nc2ccccc21)c1c(C)cccc1CC (centres undefined),inactive: 8.19%
13,Cc1ccc(N/C(=N/P(=O)(N2CCOCC2)N2CCOCC2)N2CCOCC2)cc1,inactive: 23.3%
14,O=C(Cn1cnc2c(NCc3ccccc3)ncnc21)NCc1ccc2c(c1)OCO2,inactive: -8.76%
15,CC(CNC(=O)Cn1cnc2c(NCc3ccccc3)ncnc21)c1ccccc1 (centres undefined),inactive: -3.89%
16,O=C(CSc1nc2ccccc2n1CC(=O)N1CCCCC1)N1CCCCC1,inactive: 23.8%
17,CN(C(=O)Cc1ccc(Cl)c(Cl)c1)[C@H]1CCCC[C@H]1N1CCCC1,inactive: -11.6%
18,CCN(CC)CCn1c(NS(=O)(=O)c2ccc(C)cc2)nc2ccccc21,inactive: -22.6%
19,CN(CC(=O)Nc1ccc(F)c(F)c1F)C(=O)Cn1cnc2c1c(=O)n(C)c(=O)n2C,inactive: -1.81%
20,C[C@H](O)[C@@H]1C(=O)N2CCc3ccc(-c4ccccc4)cc3[C@@H]2C[C@@H]1N(C)C(=O)NC1CCCCC1,inactive: 9.21%
21,NC(=O)c1cc([N+](=O)[O-])cc([N+](=O)[O-])c1N,inactive: -3.38%
22,CSc1nc(N)nc2c1ncn2CC(=O)NCc1ccc2[nH]ccc2c1,inactive: -11.8%
23,Cc1ccc2c(c1)C1CN(C)CCC1N2C(=O)c1ccc(Cl)c(S(=O)(=O)N2CCOCC2)c1 (centres undefined),inactive: -4.16%

row,Compound,inhibition
1,O=C(Nc1ccccc1)N1CCC(n2c(=O)[nH]c3ccccc32)CC1,inactive: -2.76%
2,CC1CCCN(C(=O)Cn2c(-c3nonc3N)nc3ccccc32)C1 (centres undefined),inactive: 7.92%
3,Nc1nonc1-c1nc2ccccc2n1CC(=O)N/N=C\c1ccc(-c2ccc(Cl)cc2)o1,inactive: -27.4%
4,Cc1ccc(-c2csc(N3CCN(c4ccc5nc(-c6ccncc6)n(CCN6CCCCC6)c5c4)CC3)n2)cc1,inactive: 5.28%
5,CCC(C(=O)NC1CCCCC1)n1c(SCc2ccc(F)cc2)nc2ccncc21 (centres undefined),inactive: -0.5%
6,CN(C)C(=O)Cn1c(SCC(=O)Nc2ccc3c(c2)OCO3)nc2ccccc21,inactive: 4.75%
7,O=C1Cn2c(nc3ccccc32)N1c1ccccc1F,inactive: 12.8%
8,N=c1n(CCCOc2ccc(F)cc2)c2ccccc2n1CC(N)=O,inactive: 4.78%
9,COc1ccc(C)cc1S(=O)(=O)N1c2ccc(C)cc2C2CN(C)CCC21 (centres undefined),inactive: -7.05%
10,Cc1n[nH]c(C)c1CCC(=O)N/N=C/C=C/c1ccccc1,inactive: 9.54%
11,CCC(=O)Nc1ccc2c(c1)nc1n2CCN(CCOC)C1,inactive: 0.18%
12,O=C(c1cccc(Cl)c1)N1CCn2c1nc1ccccc12,inactive: 5.36%
13,C=CCOC(=O)C1=C(C)N=C2SCCC(=O)N2C1/C=C/c1ccccc1OC (centres undefined),inactive: 11.3%
14,CCCCNc1nc2ccccc2n1CC(=O)N1CCc2ccccc2C1,inactive: 6.07%
15,S=C=Nc1cccc(C2(N3CCCCC3)CCCCC2)c1,inactive: -0.18%
16,CC1CCCC(C)N1C(=O)Cn1c(SCC(=O)NCc2ccc3c(c2)OCO3)nc2ccccc21 (centres undefined),inactive: -22.9%
17,O=C(Cn1c(-c2cscn2)nc2ccccc21)Nc1ccc(Cl)cc1,inactive: -13.2%
18,Cn1c(=O)c2c(ncn2CC(=O)N2CCN(S(=O)(=O)c3ccc(F)cc3)CC2)n(C)c1=O,inactive: 10.4%
19,CCCn1c(=O)[nH]c(=O)c2c1nc(-c1ccccc1)n2CCN1CCOCC1,inactive: -9.17%
20,CCCCC(=O)N/N=C(C)/C=C/c1ccccc1F,inactive: 5.37%
21,CCN(CC)CCn1c(/N=C/c2cc(Br)ccc2O)nc2ccccc21,inactive: 19.2%
22,CCOc1ccc(C(O)Cn2c(=N)n(CCN3CCCCC3)c3ccccc32)cc1 (centres undefined),inactive: 13.6%
23,Cn1c(=O)c2ncn(CC(=O)NCCC3=CCCCC3)c2n(C)c1=O,inactive: -16.6%

row,Compound,inhibition
1,Nc1ncnc2c1ncn2CCN1CCCCC1,inactive: 5.9%
2,O=C(Cn1c(CO)nc2ccccc21)NCCc1ccc(F)cc1,inactive: 9.92%
3,Cc1ccc(-c2csc(N3CCN(c4cc5c(cc4Cl)nc(-c4ccncc4)n5CCN4CCCCC4)CC3)n2)cc1,inactive: 18.6%
4,CC(C)[C@H](NC(=O)N1CCn2c1nc1ccccc12)C(=O)NCC1CCCO1 (some centres undefined),inactive: -1.46%
5,O=C(NC(Sc1ccncn1)C(Cl)(Cl)Cl)c1ccccc1 (centres undefined),inactive: -16%
6,Cn1c(=O)c2c(ncn2CC(=O)Nc2cc(S(=O)(=O)N3CCCCC3)ccc2O)n(C)c1=O,inactive: 12.2%
7,CCC(=O)N1c2ccc(S(=O)(=O)CCC(=O)N3CCn4c3nc3ccccc34)cc2CC1C (centres undefined),inactive: -2.49%
8,Oc1ccccc1CNc1ccccn1,inactive: -44.5%
9,COCCN1CCn2c(nc3cc([N+](=O)[O-])ccc32)C1,inactive: 15.8%
10,CCN(C(=O)Cn1cnc2c1c(=O)n(C)c(=O)n2C)C1CCS(=O)(=O)C1 (centres undefined),inactive: 9.22%
11,CCN(C(=O)Cn1cnc2c1c(=O)n(C)c(=O)n2C)C1CCCCC1,inactive: -4.86%
12,CN(C)CCn1c(COc2ccccc2)nc2ccccc21,inactive: 14.8%
13,Cc1ccccc1C(=O)Nc1cccc(NC(=O)Cn2cnc3c(=O)n(C)c(=O)n(C)c32)c1,inactive: -5.55%
14,CC(C)CC(=O)NC(Sc1ccc(Cl)cc1)C(Cl)(Cl)Cl (centres undefined),inactive: -5.82%
15,N=c1n(CCOc2ccccc2)c2ccccc2n1CCN1CCOCC1,inactive: 9.25%
16,CSCC[C@H](NC(=O)N1CCn2c1nc1ccccc12)C(=O)NCc1ccc(C)cc1,inactive: -24.8%
17,O=C(Nc1nc2ccccc2n1CCN1CCOCC1)c1ccc(Cl)cc1,inactive: -4.87%
18,Nc1cc(N)c2nonc2c1[N+](=O)[O-],inactive: -23.9%
19,O=C(Cn1cnc2c(NCc3ccccc3)ncnc21)NCCN1CCOCC1,inactive: -7.56%
20,CCCCCCNCCn1cnc2c(N)ncnc21,inactive: 17%
21,O=C(Cn1cnc2c(OCc3ccccc3)ncnc21)NCCN1CCOCC1,inactive: -11.7%
22,CCc1cccc(CC)c1NC(=O)Cn1c(-c2ccccc2Cl)nc2ccccc21,inactive: 6.61%
23,COCCCNC(=O)CC1C(=O)N(Cc2ccccc2)C(C)c2nc3ccccc3n21 (centres undefined),inactive: 14.3%
